Five compounds from US10125117B2, “Activation or reactivation of ache” (dated 2018) can be followed below.

This test relates to mice challenged with DFP.

Several values for one entry are separate records, joined by “and”; a condition that tells them apart may be missing. Equal entries are not always repeated. Where two headings read alike, the source gives them in different places.

Turning to `Clc1ccc(OCCCCCn2ccnc2)c(Cl)c1`, the “protection against DFP lethality in vivo” value (mice, DFP challenge) was “protect against DFP lethality”.

For `O=C(NCCCn1ccnc1)c1cc(-c2ccncc2)nc2ccccc12`, the “protection against DFP lethality in vivo” value (mice, DFP challenge) is reported as “protect against DFP lethality”.

Consider `CCN(CC)Cc1cc(Nc2ccnc3cc(Cl)ccc23)ccc1O`, for which the “mice surviving 24 hours” value (5 mg in feed 1 day prior to 1.6×LD50 s.c. DFP, listed as ADQ) is 3 out of 3 and 5 out of 5. Also, the “protection against DFP lethality in vivo” value (mice, DFP challenge) was “provides protection”.

For `CCN(CC)Cc1cc(N)ccc1O`, the “mice surviving 24 hours” value is, setting by setting: (120 mg/kg total ip, 20 minutes prior to and 5 minutes post DFP) 5/5; (given about 1-5 minutes after 1.6×LD50 s.c. DFP) 5 out of 5. For the same compound, under “mice, DFP challenge”, the “protection against DFP lethality in vivo” value is given as “complete protection”.

Turning to pralidoxine, for the setting “mice, DFP challenge”, the “molar excess of 2-PAM needed for similarly protective effects” value is 100 fold and the “protection against DFP lethality in vivo” value is “ineffective”.
